Earlier results as cited in article PMC6008586, “Analysis of transition state mimicry by tight binding aminothiazoline inhibitors provides insight into catalysis by human O-GlcNAcase” (Chemical Science, 2016).

Conditions: reference compound with known pKa

## O=[N+]([O-])c1ccc(O)cc1[N+](=O)[O-]
  pKa: 5.42
